This is an account of results in US5010095A, “N-(W-substituted alkyl)-'-(imidazol-4-yl)alkyl)guanidine” (Cedona Pharmaceuticals B.V., priority 1986, dated 1991).

Amino acid sequences for entries named in this document (tags omitted).
UniProt P31389, whole entry: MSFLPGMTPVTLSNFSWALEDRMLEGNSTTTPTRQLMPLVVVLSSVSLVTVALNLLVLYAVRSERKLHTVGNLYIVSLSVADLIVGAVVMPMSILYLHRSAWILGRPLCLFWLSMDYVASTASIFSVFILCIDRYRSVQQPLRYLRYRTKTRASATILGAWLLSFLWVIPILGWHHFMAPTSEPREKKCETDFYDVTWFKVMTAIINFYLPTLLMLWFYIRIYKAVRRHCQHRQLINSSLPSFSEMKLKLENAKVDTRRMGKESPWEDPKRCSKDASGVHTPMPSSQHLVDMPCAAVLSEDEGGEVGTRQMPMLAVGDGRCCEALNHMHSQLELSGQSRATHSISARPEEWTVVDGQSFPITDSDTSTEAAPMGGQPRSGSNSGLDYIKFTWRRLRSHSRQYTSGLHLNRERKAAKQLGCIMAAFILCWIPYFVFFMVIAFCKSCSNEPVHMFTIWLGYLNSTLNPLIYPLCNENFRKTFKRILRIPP

The target of this experiment is T1, histamine H1 (guinea-pig trachea) (Cavia porcellus, UniProt P31389).
T1 construct: Single segments were cut from the trachea; from tissue; host or cells: guinea-pig trachea (isolated segments)
Kind of experiment: Histamine H1-activity, guinea-pig trachea. The conditions noted are these: up to 10^-4 M. The method, then: The values for the H1 -activity given are the mean of at least two experiments in quadruplicate, while the values for the H2 -activity result from at least two experiments in duplicate.
Male guinea-pigs (350-500 g) were killed by a blow on the head and the trachea removed. Single segments were cut from the trachea, loaded with 0.4 g and placed in an organ bath (35° C.) containing 120 mM NaCl, 6 mM KCl, 1 mM MgSO4, 2.5 mM CaCl2, 1 mM NaH2 PO4, […] and 6 mM glucose. The organ bath was gassed with oxygen containing 5% CO2. PD2, intrinsic acitivity and antagonistic activity of the test compounds were determined from isotonically recorded, cumulative dose-response curves.

Regarding `CN/C(=N/CCSCc1nc[nH]c1C)NC#N` [cimetidine, reference compound], the “effect on resting state and histamine induced contractions of the trachea” value is listed as “neither effect on the resting state of the organ nor on the histamine induced contractions”.
